From ChEMBL document CHEMBL1128546 (J Med Chem, 1995)

The chains behind the UniProt entries cited, without tags or fusion partners.
UniProt P08908, whole entry: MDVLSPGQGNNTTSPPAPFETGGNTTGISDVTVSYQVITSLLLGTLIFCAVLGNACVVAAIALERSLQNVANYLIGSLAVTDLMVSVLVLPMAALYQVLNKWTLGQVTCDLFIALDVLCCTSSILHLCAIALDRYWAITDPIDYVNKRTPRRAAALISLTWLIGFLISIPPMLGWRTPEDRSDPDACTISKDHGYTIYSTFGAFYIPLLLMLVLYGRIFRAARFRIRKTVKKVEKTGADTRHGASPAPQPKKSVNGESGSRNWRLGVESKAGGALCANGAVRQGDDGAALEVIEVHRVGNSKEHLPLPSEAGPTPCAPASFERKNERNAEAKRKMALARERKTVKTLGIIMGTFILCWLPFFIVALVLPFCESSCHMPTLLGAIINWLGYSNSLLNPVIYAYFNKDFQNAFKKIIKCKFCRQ

Target: 5-hydroxytryptamine receptor 1A (Homo sapiens, UniProt P08908)
Test: Binding affinity for cloned human 5-hydroxytryptamine 1A receptor

NCCc1c[nH]c2ccc(OCCCCC(=O)N3CCN(c4ccc(N)cc4)CC3)cc12
Ki: 0.0507 µM

CS(=O)(=O)NCc1ccc(N2CCN(C(=O)COc3ccc4[nH]cc(CCN)c4c3)CC2)cc1
Ki: 0.095 µM

N#Cc1ccccc1N1CCN(C(=O)COc2ccc3[nH]cc(CCN)c3c2)CC1
Ki: 0.015 µM

NCCc1c[nH]c2ccc(OCCCC(=O)N3CCN(c4ccc([N+](=O)[O-])cc4)CC3)cc12
Ki: 0.0151 µM

CN(C)S(=O)(=O)Nc1ccc(N2CCN(C(=O)COc3ccc4[nH]cc(CCN)c4c3)CC2)cc1.Cl.O
Ki: 0.0403 µM

CS(=O)(=O)NCc1ccccc1N1CCN(C(=O)COc2ccc3[nH]cc(CCN)c3c2)CC1
Ki: 0.0051 µM

NCCc1c[nH]c2ccc(OCCCCCC(=O)N3CCN(c4ccc(N)cc4)CC3)cc12
Ki: 0.0426 µM

NCCc1c[nH]c2ccc(OCCCCCC(=O)N3CCN(c4ccc([N+](=O)[O-])cc4)CC3)cc12
Ki: 0.0128 µM

NCCc1c[nH]c2ccc(OCC(=O)N3CCN(c4ccc(CN)cc4)CC3)cc12
Ki: 0.13 µM

CS(=O)(=O)Nc1ccc(N2CCN(C(=O)COc3ccc4[nH]cc(CCN)c4c3)CC2)cc1
Ki: 0.0689 µM

NCCc1c[nH]c2ccc(OCCCCC(=O)N3CCN(c4ccc([N+](=O)[O-])cc4)CC3)cc12
Ki: 0.0159 µM

CS(=O)(=O)Nc1ccc(N2CCN(C(=O)CCCCCOc3ccc4[nH]cc(CCN)c4c3)CC2)cc1
Ki: 0.0102 µM

NCCc1c[nH]c2ccc(OCC(=O)N3CCN(c4ccccc4CN)CC3)cc12
Ki: 0.0136 µM

NCCc1c[nH]c2ccc(OCC(=O)N3CCN(c4ccccc4[N+](=O)[O-])CC3)cc12
Ki: 0.0052 µM

NCCc1c[nH]c2ccc(OCC(=O)N3CCN(c4ccc(N)cc4)CC3)cc12
Ki: 0.607 µM

NCCc1c[nH]c2ccc(OCC(=O)N3CCN(c4ccc(NC(=O)c5ccccc5)cc4)CC3)cc12
Ki: 0.061 µM

NCCc1c[nH]c2ccc(OCC(=O)N3CCN(c4ccc([N+](=O)[O-])cc4)CC3)cc12
Ki: 0.024 µM

NCCc1c[nH]c2ccc(OCC(=O)N3CCN(c4ccccc4)CC3)cc12
Ki: 0.0104 µM
